From US20220023273A1, “METHODS FOR TREATING SYMPTOMS AND DISORDERS ASSOCIATED WITH LYSOSOMAL STORAGE DISEASES” (GENZYME CORPORATION, priority 2019, published 2022)

Key:
Format in all cases: in vivo, human
[1] = Phase 1 Study 1 Part 2: PK with and without a high-fat meal; details: healthy men, single oral 5 mg
Experimental: (§1) Study 1 was a 2-part single-center trial in healthy adult male volunteers. Part 1 was a double-blind, randomized, placebo-controlled sequential ascending single-dose study of Compound 2 for safety, tolerability, and PK. Part 2 was an open-label, single-cohort, randomized, 2-sequence, 2-period, 2-treatment crossover study of Compound 2 for PK with and without a high-fat meal.
(§2) In Part 1 the subjects were randomized to receive 2, 5, 15, 25, 50, 100, or 150 mg of Compound 2 (L-malic salt form) or matching placebo on the morning of the first day after at least a 10-hour fast. In Part 2, the subjects were randomized to receive a single oral dose of 5 mg Compound 2 either while fasting (at least 10 hours before and 4 hours after administration) or 30 minutes after a standardized high-fat breakfast (˜815 kcal). After a 7-day washout period, participants were crossed over to the other condition.
In Study 1, Part 2, blood was sampled for plasma concentrations if Compound 2 at 0, 0.5, 1, 2, 3, 4, 5, 6, 8, 10, 12, 16, 24, and 48 hours post-dose.

[2] = system: plasma GL-1, GL-3, and GM3; experiment: Phase 1 Study 2: pharmacodynamics; details: Day 15, healthy adults
Experimental: The study enrolled and randomized 36 healthy adults (19 men and 17 women) (n=9 each to group).
Pharmacodynamic endpoints (plasma GL-1, GL-3, and GM3 concentrations) were assessed on Days 1-5, 8, 11, 13, and 14, at 0 hours […]; and on Day 15, at 24 hours after the Day 14 dose.

[3] = Phase 1 Study 1 Part 1: ascending single-dose pharmacokinetics; details: 75-fold dose increase (2 to 150 mg), single oral
Description: as §1
Part 1 of the study enrolled and randomized 55 healthy men (placebo, n=14; 2-, 5-, 15, 25-, 50, and 100-mg doses, n=6 each; 150-mg dose, n=5). Eight healthy men participated in Part 2.
as §2
In Study 1, Part 1, blood was sampled for plasma concentrations of Compound 2 at the time of study drug administration (0 hour) and 0.5, 1, 2, 3, 4, 5, 6, 8, 10, 12, 16, 24, 48, 72, and 96 hours post-dose. Urine samples were collected for analysis of Compound 2 concentrations beginning 2 hours before study drug administration through 48 hours afterward.

[4] = Phase 1 Study 2: ascending repeated-dose pharmacokinetics
[5] = 4-fold dose increase (5-20 mg), Day 14

SMILES: CC(C)(NC(=O)O[C@@H]1CN2CCC1CC2)c1csc(-c2ccc(F)cc2)n1 [Compound 2, (S)-quinuclidin-3-yl (2-(2-(4-fluorophenyl)thiazol-4-yl)propan-2-yl)carbamate]
- Fed/fasted geometric mean ratio, AUClast [1]: 0.91
- Fed/fasted geometric mean ratio, Cmax [1]: 0.92
- GL-1, point estimate of treatment ratio vs placebo ([2]; 5 mg once daily 14 days): 0.39
- GL-3, point estimate of treatment ratio vs placebo ([2]; 5 mg once daily 14 days): 0.61
- GM3, point estimate of treatment ratio vs placebo ([2]; 5 mg once daily 14 days): 0.56
- GL-1, point estimate of treatment ratio vs placebo ([2]; 10 mg once daily 14 days): 0.32
- GL-3, point estimate of treatment ratio vs placebo ([2]; 10 mg once daily 14 days): 0.69
- GM3, point estimate of treatment ratio vs placebo ([2]; 10 mg once daily 14 days): 0.49
- GL-1, point estimate of treatment ratio vs placebo ([2]; 20 mg once daily 14 days): 0.23
- GL-3, point estimate of treatment ratio vs placebo ([2]; 20 mg once daily 14 days): 0.67
- GM3, point estimate of treatment ratio vs placebo ([2]; 20 mg once daily 14 days): 0.40
- fold increase in geometric mean AUCinf [3]: 85.9 fold
- fold increase in geometric mean AUClast [3]: 89.2 fold
- fold increase in geometric mean Cmax [3]: 97.3 fold
- fold increase in geometric mean AUC0-24 [4, 5]: 3.69 fold
- fold increase in geometric mean Cmax [4, 5]: 3.76 fold
- fold CLR lower than observed plasma CL/F ([4]; after 14 once-daily doses, 5-20 mg): 3.18-3.86 fold
